The values that follow come from US20140227375A1, “PIP-2 Inhibition-Based Antiviral and Anti-Hyperlipidemic Therapies” (priority 2008, published 2014).

In this data set the test system is Huh 7.5 cells. The data set is described as follows: Alamar blue cell viability assay. As to conditions: relative cell viability, electroporated cells treated with neomycin.

On to neomycin, for which the “concentration up to which no toxicity was observed” value is reported as “greater than 1 mM”.
